We go through five compounds from patent publication US8658646B2, “Pyrrolopyrazine kinase inhibitors” (Hoffmann-LaRoche Inc., priority 2011, dated 2014).

By UniProt entry, the sequences of proteins in these tests, tags left out. Residues count along the entry.
UniProt P52333, 822-1111 limits assumed: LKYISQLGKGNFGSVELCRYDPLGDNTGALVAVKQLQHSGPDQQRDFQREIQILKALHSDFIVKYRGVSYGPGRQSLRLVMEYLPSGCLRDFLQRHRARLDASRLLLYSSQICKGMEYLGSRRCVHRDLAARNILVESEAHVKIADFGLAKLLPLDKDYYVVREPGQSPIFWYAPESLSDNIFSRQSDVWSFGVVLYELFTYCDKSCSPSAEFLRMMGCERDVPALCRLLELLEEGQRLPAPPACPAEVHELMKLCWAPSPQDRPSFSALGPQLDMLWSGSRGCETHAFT

For the test, the target named is T1, JAK3: Recombinant human kinase domain (Homo sapiens, UniProt P52333).
T1 construct: JAK3: Recombinant human kinase domain from Millipore (Cat #14-629) or prepared; purchased Millipore 14-629
The test is described as follows: Determination of IC50 of Janus Kinase (JAK) inhibition, radioactive end-point 33P-ATP assay, JAK3. In kind it is biochemical. The settings on record: ATP 1.5 uM, peptide 50 uM, 20 minutes, read-out: JAK3-INHIB-DR/v1~NO ADDITIVE~Enzyme_Conc = 100.
Take `C[C@@H](NC(=O)c1c[nH]c2ncc(-c3nn(C)c4cc(Cl)ccc34)nc12)C(=O)N1CC(C#N)C1` [Example I-4, 2-(6-Chloro-1-methyl-1H-indazol-3-yl)-5H-pyrrolo[2,3-b]pyrazine-7-carboxylic acid [(R)-2-(3-cyano-azetidin-1-yl)-1-methyl-2-oxo-ethyl]-amide]: the IC50 was determined as 1.05 nM.

In the case of `C[C@@H](NC(=O)c1c[nH]c2ncc(-c3nn(C)c4ccc(Cl)cc34)nc12)C(=O)N1CC(C#N)C1` [Example I-5, 2-(5-Chloro-1-methyl-1H-indazol-3-yl)-5H-pyrrolo[2,3-b]pyrazine-7-carboxylic acid [(R)-2-(3-cyano-azetidin-1-yl)-1-methyl-2-oxo-ethyl]-amide], the IC50 worked out at 3 nM.

Take `C[C@@H](NC(=O)c1c[nH]c2ncc(-c3nn(C)c4cc(C#N)ccc34)nc12)C(=O)N1CC(C#N)C1` [Example I-22, 2-(6-Cyano-1-methyl-1H-indazol-3-yl)-5H-pyrrolo[2,3-b]pyrazine-7-carboxylic acid [(R)-2-(3-cyano-azetidin-1-yl)-1-methyl-2-oxo-ethyl]-amide]: the IC50 is 0.725 nM.

For `C[C@@H](NC(=O)c1c[nH]c2ncc(-c3nn(C)c4cc(C(C)(C)C)ccc34)nc12)C(=O)N1CC(C#N)C1` [Example I-81, 2-(6-tert-Butyl-1-methyl-1H-indazol-3-yl)-5H-pyrrolo[2,3-b]pyrazine-7-carboxylic acid [(R)-2-(3-cyano-azetidin-1-yl)-1-methyl-2-oxo-ethyl]-amide], the IC50 came out at 10 nM.

For `C[C@@H](NC(=O)c1c[nH]c2ncc(-c3nn(C)c4cc(F)ccc34)nc12)C(=O)N1CC(C#N)C1` [Example I-83, 2-(6-Fluoro-1-methyl-1H-indazol-3-yl)-5H-pyrrolo[2,3-b]pyrazine-7-carboxylic acid [(R)-2-(3-cyano-azetidin-1-yl)-1-methyl-2-oxo-ethyl]-amide], the IC50 is 0.635 nM.
